The structures appear in SMILES notation.

Protein sequences, listed by entry. Tags and fused reporters are not part of them. Lines headed by an entry give the natural chain unless they say otherwise; changes in a name come on top.
UniProt P43116: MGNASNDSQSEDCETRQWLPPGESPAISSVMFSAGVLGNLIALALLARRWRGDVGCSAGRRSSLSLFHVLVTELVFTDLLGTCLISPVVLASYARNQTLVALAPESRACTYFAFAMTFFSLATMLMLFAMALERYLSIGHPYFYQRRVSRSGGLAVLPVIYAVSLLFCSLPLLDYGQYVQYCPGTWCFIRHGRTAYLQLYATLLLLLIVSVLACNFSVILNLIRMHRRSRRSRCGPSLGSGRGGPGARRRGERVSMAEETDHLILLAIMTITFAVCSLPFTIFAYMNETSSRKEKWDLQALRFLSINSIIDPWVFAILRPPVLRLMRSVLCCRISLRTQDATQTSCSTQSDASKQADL

In the experiment the target is T1, human EP2 receptors (Homo sapiens, UniProt P43116).
T1 construct: cDNAs representing the complete open reading frames of the human EP2 receptors; expressed in transfected cells
Briefly: Scatchard analysis of specific [3H]PGE2 binding in transfected 293-S cells. The note with it: 293-S line selected for compound screening, EP2 receptor subtype.

In turn, `CCCCC[C@H](O)/C=C/[C@H]1[C@H](O)CC(=O)[C@@H]1C/C=C\CCCC(=O)O` [PGE2, Prostaglandin E2] showed a dissociation constant (Kd) of 12 nM.

The term Kd denotes a measure of binding affinity in units of concentration. Higher therefore signals lower affinity.

The values above are taken from patent US20030166631A1, “Pharmaceutical compositions and methods for administering EP2 receptor selective agonists” (priority 2001, published 2003).
